Columns and labels:
SW1353 = assay: Cell viability (CellTiter-Glo) cytotoxicity assay, INBRX-109 x CDK9 or MCL-1 inhibitor matrix, 48 h, chondrosarcoma line
H-EMC-SS = assay: as above
SW620 = assay: Cell viability (CellTiter-Glo) cytotoxicity assay, INBRX-109 x CDK9 or MCL-1 inhibitor matrix, 48 h, colorectal cancer line; conditions: dinaciclib + 1 nM INBRX-109
OUMS-27 = assay: Cell viability (CellTiter-Glo) cytotoxicity assay, INBRX-109 x CDK9 or MCL-1 inhibitor matrix, 48 h, chondrosarcoma line

CCc1cnn2c(NCc3ccc[n+]([O-])c3)cc(N3CCCC[C@H]3CCO)nc12 [Dinaciclib]
Max Cytotox (SW1353; dinaciclib + 1 nM INBRX-109): 85.11%
Max Cytotox at 25 nM (SW1353; dinaciclib only): 58.0%
Max Cytotox (H-EMC-SS; dinaciclib + 1 nM INBRX-109): 99.62%
Max Cytotox at 25 nM (H-EMC-SS; dinaciclib only): 54.0%
Max Cytotox (SW620): 99.52%
Max Cytotox (OUMS-27; dinaciclib + 1 nM INBRX-109): 86.13%
Max Cytotox at 25 nM (OUMS-27; dinaciclib only): 15.1%

— patent publication US20250215101A1, “DR5 Agonist and PLK1 Inhibitor or CDK Inhibitor Combination Therapy” (Inhibrx Biosciences, Inc., priority 2022, published 2025)
